This note sets out measurements from PubChem BioAssay AID190 (DTP/NCI, 2004).

Toxic doses and inconclusive results are not listed.

The subject of this assay is AKR/Lw mice, AKR lymphoma ip, median survival T/C. The assay is described as follows: NCI In Vivo Anticancer Drug Screen. Data for tumor model Lymphoma AKR (Transplanted) (intraperitoneal) in AKR/Lw mice. The settings on record: endpoint: median survival time; dose: 3.1 mg/kg/injection; schedule: Q01DX015 (ip); vehicle: saline; higher = longer survival. How it is done:
The antitumor activity of compounds was measured in mice bearing transplantable tumors. Survival or tumor size were measured and the results are expressed as the measurement made in the treated group (T) divided by the measurement made in the vehicle treated control group (C). The tumor model used in this assay is Lymphoma AKR (Transplanted) (intraperitoneal) in AKR/Lw mice

For `CC(/C=N/N=C(N)N)=N\N=C(N)N`, the T/C is 112 % of control.
